Experimental data as given in patent US9856239B1, “Carboxylic acid compound, method for preparation thereof, and use thereof” (INVENTISBIO SHANGHAI LTD., priority 2014, dated 2018).
pIC50: −log10 of the molar value.

Sequences of proteins named here, by UniProt entry; tags and fusion partners are left off.
UniProt Q96S37, whole entry: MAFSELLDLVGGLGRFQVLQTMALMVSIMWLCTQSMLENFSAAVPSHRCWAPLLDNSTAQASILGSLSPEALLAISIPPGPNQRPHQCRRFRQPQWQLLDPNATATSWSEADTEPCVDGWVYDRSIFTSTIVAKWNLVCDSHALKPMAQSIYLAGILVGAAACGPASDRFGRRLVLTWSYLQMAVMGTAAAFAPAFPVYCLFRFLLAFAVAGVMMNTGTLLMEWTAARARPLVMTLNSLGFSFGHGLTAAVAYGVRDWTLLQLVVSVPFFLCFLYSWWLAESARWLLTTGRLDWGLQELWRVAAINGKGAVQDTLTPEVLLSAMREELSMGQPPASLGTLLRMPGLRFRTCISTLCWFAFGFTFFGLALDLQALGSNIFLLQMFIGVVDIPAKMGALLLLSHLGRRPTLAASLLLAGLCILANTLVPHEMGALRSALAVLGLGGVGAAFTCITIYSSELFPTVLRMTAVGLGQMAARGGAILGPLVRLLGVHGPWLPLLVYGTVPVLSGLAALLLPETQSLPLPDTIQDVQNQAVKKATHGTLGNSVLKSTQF

Target: human URAT1 (Homo sapiens (Human), UniProt Q96S37)
Assay: Inhibition of 14C-uric acid absorption in URAT1 cell model (HEK-293T cells transfected with human URAT1)
Assay type: cell-based
Conditions: read-out: URAT1 IC50 Activity level; HEK-293T cells transfected with human URAT1, 14C-uric acid uptake, 5 min, 37 degrees

N#Cc1ccc(-c2cc(F)ccc2SCC2(CC(=O)O)CC2)cc1
pIC50: > 7.00
